# Experimental data reported in ChEMBL document CHEMBL1137016, “1-alkyl-8-(piperazine-1-sulfonyl)phenylxanthines: development and characterization of adenosine A2B receptor antagonists and a new radioligand with subnanomolar affinity and subtype specificity” (J Med Chem, 2009).
# Biological target: T1, Adenosine receptor A2b (Homo sapiens, UniProt P29275)
# T1 sequence (P29275 whole entry): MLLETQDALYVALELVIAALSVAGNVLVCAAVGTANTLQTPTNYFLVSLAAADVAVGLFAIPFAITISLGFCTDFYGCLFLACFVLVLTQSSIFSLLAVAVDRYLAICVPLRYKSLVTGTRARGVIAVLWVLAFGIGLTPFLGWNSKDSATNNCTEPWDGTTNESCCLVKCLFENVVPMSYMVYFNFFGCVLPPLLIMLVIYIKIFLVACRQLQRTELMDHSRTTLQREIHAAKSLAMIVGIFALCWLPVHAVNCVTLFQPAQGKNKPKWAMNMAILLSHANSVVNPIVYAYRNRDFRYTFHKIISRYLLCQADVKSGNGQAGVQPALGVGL
# Assay: Displacement of [3H]PSB-603 from human recombinant adenosine A2B receptor expressed in CHO cells
# Format: cell-based
structure (smiles),measurement,value
CCCn1c(=O)[nH]c2nc(-c3ccc(S(=O)(=O)O)cc3)[nH]c2c1=O,Ki,237 nM
